Our source for the inhibition values is PubChem BioAssay AID624267 (The Scripps Research Institute Molecular Screening Center, 2012).

Chains of the proteins cited; added tags and fusions are not shown.
UniProt O43353, whole entry: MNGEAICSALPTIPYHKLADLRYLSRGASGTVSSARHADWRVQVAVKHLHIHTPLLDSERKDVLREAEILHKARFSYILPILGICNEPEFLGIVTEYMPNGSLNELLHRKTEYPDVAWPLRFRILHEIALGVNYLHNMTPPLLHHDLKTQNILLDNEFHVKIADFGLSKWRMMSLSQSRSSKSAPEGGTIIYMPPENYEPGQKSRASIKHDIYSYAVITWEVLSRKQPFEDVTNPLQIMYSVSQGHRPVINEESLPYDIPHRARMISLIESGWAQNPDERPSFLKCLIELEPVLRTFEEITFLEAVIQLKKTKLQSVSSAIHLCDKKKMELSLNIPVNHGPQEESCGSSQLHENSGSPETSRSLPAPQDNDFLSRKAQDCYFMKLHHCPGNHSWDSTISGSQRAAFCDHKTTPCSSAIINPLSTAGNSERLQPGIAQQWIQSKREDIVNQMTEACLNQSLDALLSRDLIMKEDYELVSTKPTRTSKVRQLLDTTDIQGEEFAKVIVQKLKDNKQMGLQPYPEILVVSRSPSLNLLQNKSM

Each structure is given as a SMILES string. The entries are a selection whose mix differs from that of the whole data set. Some of these compounds have results that are not shown, active ones among them. Calls of active or inactive are those of the source. No stated cut-off is given here; in the data, active means inhibition above about 21%; inactive means the rest.

The target in this assay is Receptor-interacting serine/threonine-protein kinase 2 (Homo sapiens) (UniProt O43353). Nature of the assay: NOD2-RIPK2 binding disruptors in cells, primary screen, fluorescence, CHO cells, BLA complementation (AID 624267).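 Further: 0% = vehicle only and 100% = reference blocker.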 To be noted: CHO BLA complementation NOD2-RIPK2, CCF4 ratio; at 4.98 µM; active compounds read high.
Turning to `O=C(OC1CN2CCC1CC2)C(CO)(c1ccccc1)c1ccccc1` (stereo unspecified), the inhibition was inactive: 0.62%.

As for `C=C(C)C#CC(O)(C(=O)OC1CCN(C)CC1)c1ccccc1` (stereo unspecified), the inhibition is inactive: -15.3%.

As to `COc1ccc(Br)c(C(=O)NCC2(N3CCCCC3)CCCCC2)c1`, the inhibition is inactive: -0.91%.

For `O=C(OCCN1CCCC1)C(O)(c1ccccc1)c1ccccc1`, the inhibition was inactive: -3.58%.

With `CC(C)Oc1ccc(C(=O)NCC2(N(C)C)CCCCC2)cc1`, the inhibition is inactive: -10.4%.

`CN(C)c1cccc(C(=O)NCC2(N(C)C)CCCCC2)c1`: the inhibition is inactive: 10.5%.

`CN(C)C1(CNC(=O)c2ccc(Br)cc2)CCCCC1`: the inhibition is inactive: -10.6%.

With `COc1cc(C(=O)NCC2(N(C)C)CCCCC2)c([N+](=O)[O-])cc1OC`, the inhibition was inactive: 10.6%.

As to `COc1ccc(Cl)cc1C(=O)NCC1(N(C)C)CCCCC1`, the inhibition is inactive: -2.7%.

Consider `COc1cccc(C(=O)NCC2(N3CCCCC3)CCCCC2)c1`, for which the inhibition is inactive: -2.25%.

On to `O=C(NCC1(N2CCCCC2)CCCCC1)c1cccc(Cl)c1`, for which the inhibition was inactive: -9.07%.

Regarding `CN(C)C1CCCC1OC(=O)C(O)(c1ccccc1)c1ccccc1` (stereo unspecified), the inhibition is inactive: 1.59%.

Turning to `CN(C)c1ccc(C(=O)NCC2(N(C)C)CCCCC2)cc1`, the inhibition is inactive: -14.2%.

For `Cc1ccccc1C(=O)NCC1(N2CCCCC2)CCCCC1`, the inhibition is inactive: -3.81%.

Consider `O=C(NCC1(N2CCCCC2)CCCCC1)c1cc(F)c(F)cc1Cl`, for which the inhibition was inactive: 9.78%.

In the case of `C=CCN1CCN(CCOC(=O)C(O)(c2ccccc2)c2ccccc2)CC1`, the inhibition was inactive: -16.8%.

Turning to `COc1ccc(C(=O)NCC2(N(C)C)CCCCC2)cc1`, the inhibition is inactive: -0.15%.

With `O=C(NCC1(N2CCCCC2)CCCCC1)c1cccc(Br)c1`, the inhibition is inactive: 7.19%.

`Cc1cc(C(=O)NCC2(N3CCCCC3)CCCCC2)ccc1[N+](=O)[O-]`: the inhibition was inactive: 4.78%.

In the case of `CCN1CCCC(OC(=O)C2(O)c3ccccc3C=Cc3ccccc32)C1` (stereo unspecified), the inhibition was inactive: -5.36%.

For the compound `O=C(NCC1(N2CCCCC2)CCCCC1)c1cc([N+](=O)[O-])ccc1Cl`, the inhibition was inactive: -3.24%.

On to `CN1[C@@H]2CC[C@H]1CC(OC(=O)C(O)(c1ccccc1)c1ccccc1)C2` (stereo partly specified), for which the inhibition is inactive: -13%.

In the case of `COc1cc(SC)ccc1C(=O)NCC1(N(C)C)CCCCC1`, the inhibition was inactive: 0.15%.

Consider `CCN(CC)CC(C)C(C)OC(=O)C(O)(c1ccccc1)c1ccccc1` (stereo unspecified), for which the inhibition is inactive: 2.28%.

On to `CC(C)N1C(=O)CC2(CCN(CCOC(=O)C(O)(c3ccccc3)c3ccccc3)CC2)C1=O`, for which the inhibition was inactive: -0.12%.

For the compound `Cc1ccc(C(=O)NCC2(N3CCCCC3)CCCCC2)cc1`, the inhibition was inactive: -1.13%.

As a reminder, the inhibition is the drop in the measured response relative to a control, in per cent.
